The source of these data is US9706755B2, “Controlled odor mimic permeation system” (dated 2017).

The subject of data set [1] is explosives detection canines. Kind of data set: Follow-up testing of C-4 mimic aids (Table 96). The conditions noted are these: four canines.
Data set [2] has as its system explosives detection canines. Kind of data set: First field test of gauze mimic aids, COMPS kits (Table 94).
For data set [3], the system named is explosives detection canines. The experiment in a line: Overall / individual canine performance (alerts plus interests over all hides; real explosives, odor chemicals, NESTT silica and petrolatum aids; Tables 69-72). The conditions noted are these: for overall canine population response to odor chemical (alert/interest): Table 70, all field tests pooled, canines 120, 140, 141 discounted; for total number of alerts or interest / total number of hides: interest reported as alert.

Data set [4] relates to trained and certified explosives detection canines. The experiment in a line: Canine field trials, active odor determination (odor line-up of hide boxes).
The subject of data set [5] is previously trained explosives detection canines. The experiment in a line: Field testing of the first double bag training aid design (Table 90). The conditions noted are these: for dogs alerting: 10 mg on gauze in 2.0 mil LDPE.
For data set [6] the following is noted: cited from earlier work.
A short description of data set [7]: Permeation of odor compounds through 2.0 mil LDPE bags (gravimetric). Conditions: gradient of mass loss over time.
Data set [8] in a line: Permeation of odor compounds through different polymer chemistries (gravimetric). Conditions: 25.0 mg on gauze; LDPE 1.5-4.0 mil, polypropylene, cellophane, Kapak; 1 month.
Where [9] appears, read: 10.0 mg on cotton gauze in LDPE, dogs 140 & 141 excluded.
Setting [10] is: canines 108, 109 and 118, most experienced teams.
The mark [11] stands for this setting: six of dogs 121-129, imprinted on RDX, tested after first exposure to C-4.
Where [12] appears, read: Table 58, 0.5 μl in 2.0 mil LDPE.
The mark [13] stands for this setting: Table 59, 10.0 μl in 2.0 mil LDPE.
Where [14] appears, read: Table 60, 25 μl in 2.0 mil LDPE.
[15] abbreviates: 100 μl at 100.00 ppm on Gauze in 2.5 mil Al Kapak, in Electrical Box, ten dogs.
Where [16] appears, read: aid removed from the outer packaging.
[17] abbreviates: removing canines 120, 140 & 141.

Regarding `CCCCC(CC)CO` (stereo not drawn), the “Interest (dog numbers)” value in data set [1] (10 μl on Gauze in 2 mil LDPE, Electrical Box) was determined as 118. In addition, the “interests (canines showing interest / canines tested)” value in data set [1] (Table 96, 10 μl) is 1/4; in data set [3] (setting [11]), 2/6; in data set [4] (Table 57, 5.0 mg), 1/9; in data set [4] (setting [12]), 0/2; in data set [4] (setting [13]), 3/10; in data set [4] (setting [14]), 5/12. The interest in data set [2] (setting [9]) is reported as 33%. In addition, in data set [2] (setting [9]), the positive response is recorded as 50%. Also, in data set [3], the “overall canine population response to odor chemical (alert/interest)” value amounted to 74.4%. Further, the combined result in data set [3] (setting [10]) worked out at 86.7%. For the same molecule, in data set [3] (setting [10]), the “combined result (responses / hides)” value was 13/15. Moreover, the “alerts (canines alerting / canines tested)” value in data set [3] (setting [11]) is reported as 2/6; in data set [4] (Table 57, 5.0 mg), 8/9; in data set [4] (setting [12]), 2/10; in data set [4] (setting [13]), 7/10; in data set [4] (setting [14]), 2/12. Besides, the “% Alert” value in data set [4] (Table 57, Quart Can, 50 μl at 10% w/v Acetonitrile on Cotton in Open Vial, 9 canines) turned out to be 88.9%; in data set [4] (Table 61, 100 ng (100 μl at 1 ppm Acetonitrile) on Cotton), 6.7%; in data set [4] (Table 61, 1 ug (100 μl at 10 ppm Acetonitrile) on Cotton), 6.7%; in data set [4] (Table 61, 10 ug (100 μl at 100 ppm Acetonitrile) on Cotton), 6.7%; in data set [4] (Table 61, 100 ug (100 μl at 1000 ppm Acetonitrile) on Cotton) it was 13.3%; in data set [4] (Table 61, 1 mg (100 μl at 10,000 ppm Acetonitrile) on Cotton), 13.3%. In addition, the “% Alert” value in data set [4] (Table 61, 10 mg (100 μl at 100,000 ppm Acetonitrile) on Cotton) turned out to be 33.3%; in data set [5] (100 μl at 100.00 ppm on Gauze in 2.0 mil LDPE, in Electrical Box, ten dogs), 70%; in data set [5] (setting [15]), 10%. The “amount to which most dogs alerted” value in data set [4] (Table 61 detection level study) lay in the range of 1 to 10 mg. For the same molecule, in data set [4] (Table 61 detection level study), the “lowest amount to which one dog gave an alert” value is 10 ng. For the same molecule, the “Alert (dog numbers)” value in data set [5] (setting [15]) worked out at 116. For the same molecule, the “dogs giving interest without alert” value in data set [5] (setting [16]) is on record as “three dogs”. Also, the dogs alerting result in data set [5] (setting [16]) is “seven out of ten”; in data set [5] (aid still in the aluminised Kapak outer bag), “one in ten”.

Take `CC(C)([N+](=O)[O-])C(C)(C)[N+](=O)[O-]`: the “Vapour Pressure at 25° C.” value in data set [6] is 2.1 × 10^−3 torr. The “permeation rate through LDPE” value in data set [7] was 1030 pg/s. In data set [8], the “permeation through different polymers (qualitative)” value is “no discernable difference between the rate of loss from the different polymers”.

On to 2-Nitrodiphenylamine, for which, in data set [2] (100 μl at 10% w/v Acetonitrile on Gauze in 2 mil LDPE, Electrical Box), the “Interest (dog numbers)” value worked out at 112. In addition, the “total number of alerts or interest / total number of hides” value in data set [3] (Dog Number 101) is recorded as 0/1; in data set [3] (Dog Number 106), 0/1; in data set [3] (Dog Number 108), 0/2; in data set [3] (Dog Number 109) it was 0/4; in data set [3] (Dog Number 110) it was 0/2; in data set [3] (Dog Number 112) it was 0/2. In addition, the “total number of alerts or interest / total number of hides” value is reported as 0/1 in data set [3] (Dog Number 113); 0/1 in data set [3] (Dog Number 115); 0/2 in data set [3] (Dog Number 117); 0/2 in data set [3] (Dog Number 118); 0/1 in data set [3] (Dog Number 119); 0/2 in data set [3] (Dog Number 126). Further, the “total number of alerts or interest / total number of hides” value is given as 0/2 in data set [3] (Dog Number 127); 0/1 in data set [3] (Dog Number 128); 0/1 in data set [3] (Dog Number 129); 0/1 in data set [3] (Dog Number 130); 0/1 in data set [3] (Dog Number 131); 0/1 in data set [3] (Dog Number 132). Moreover, the “total number of alerts or interest / total number of hides” value in data set [3] (Dog Number 133) was 0/1; in data set [3] (Dog Number 140 (4/6 false alerts, discounted from adjusted totals)), 1/1; in data set [3] (Dog Number 141 (4/6 false alerts, discounted from adjusted totals)) it was 1/1; in data set [3] (Dog Number 142) it was 0/1; in data set [3] (Dog Number 143) it was 0/1; in data set [3] (Dog Number 144), 0/1. Also, the “overall canine population response to odor chemical (alert/interest)” value in data set [3] turned out to be 0.0%. In addition, the “Total, alerts or interest / hides” value in data set [3] (all canines 101-144) is reported as 2/24. In data set [3] (all canines 101-144), the “Total, alerts or interest as percent of hides” value was determined as 8.33%. The “Adjusted Total, alerts or interest / hides” value in data set [3] (setting [17]) is given as 0/20. Moreover, the “Adjusted Total, alerts or interest as percent of hides” value in data set [3] (setting [17]) was found to be 0.0%. Also, the “response from the canines” value in data set [4] (two field tests, 5.0 mg and 10.0 mg) is recorded as “neither test resulted in any response”.
